The text below walks through data of patent US20040091528A1, “Soluble drug extended release system” (Yamanouchi Pharma Technologies, Inc., priority 2002, published 2004).

Data set [1] is described as follows: In vitro dissolution (drug release) from 400 mg matrix tablets, USP apparatus II, SGF or SIF. The class given is physicochemical.
For data set [2] the following is noted: Table 2, positively charged drugs; cited from earlier work.
The conditions of data set [3]: Table 1; cited from earlier work.
The mark [4] stands for this setting: 1:1.5 PAA/PEO excipient mixture, SIF.

With Thiamine Mononitrate, in data set [1] (setting [4]), the T10 worked out at 1 h and the T50 came to 14 h. In addition, the “T50 in SIF” value in data set [1] (1:1.5 PAA/PEO, SIF) worked out at 14 h. In addition, in data set [1] (1:1.5 PAA/PEO, modified SGF), the “T50 in SGF” value was determined as 3 h. Further, the Solubility in data set [2] was 300 mg/mL.

Consider Amitriptuline HCl, for which, in data set [3], the log partition coefficient (Log P) is 4.8.
